{"source": "ChEMBL document CHEMBL1201862", "about": "“PubChem BioAssay data set” (2004)", "note": "The entries are a selection whose mix differs from that of the whole data set. Only a part of the results of these assays is listed, not drawn at random. The source made the active and inactive calls. The rule behind the calls is not given here.", "data": [{"target": "T1, Ferritin light chain (Equus caballus) (UniProt P02791)", "T1 sequence (whole entry)": "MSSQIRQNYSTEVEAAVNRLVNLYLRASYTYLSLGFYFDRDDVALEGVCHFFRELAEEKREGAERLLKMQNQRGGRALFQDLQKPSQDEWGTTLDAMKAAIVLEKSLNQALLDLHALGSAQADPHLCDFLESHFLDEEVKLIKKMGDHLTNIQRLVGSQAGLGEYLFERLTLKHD", "values": [{"smiles": "O=C(O)c1cc(S(=O)(=O)O)ccc1O", "Potency": "inactive"}]}]}
